Test results from US5945585.

Target: acyl carrier protein (ACP) purified from E. coli (E. coli) (UniProt P0A6A8)

Work on “acyl-ACP synthase purified from E. coli membranes (from UniProt P31119) (enzyme)” yielded a consumption of ACP in the synthesis of radiolabeled acyl-ACP (% of the ACP consumed) of 88.
